Results from PubChem BioAssay AID651957 (The Scripps Research Institute Molecular Screening Center, 2012).
Only a part is listed here, and it is no random draw. Activity calls are given as the source filed them.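 The calls were made as follows: active = inhibition above the mean inhibition of all tested compounds plus 3 SD, set per campaign (cut at about 52% in these data); inactive = the rest.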

Protein sequences, listed by entry. Tags and fused reporters are not part of them.
UniProt Q15596, whole entry: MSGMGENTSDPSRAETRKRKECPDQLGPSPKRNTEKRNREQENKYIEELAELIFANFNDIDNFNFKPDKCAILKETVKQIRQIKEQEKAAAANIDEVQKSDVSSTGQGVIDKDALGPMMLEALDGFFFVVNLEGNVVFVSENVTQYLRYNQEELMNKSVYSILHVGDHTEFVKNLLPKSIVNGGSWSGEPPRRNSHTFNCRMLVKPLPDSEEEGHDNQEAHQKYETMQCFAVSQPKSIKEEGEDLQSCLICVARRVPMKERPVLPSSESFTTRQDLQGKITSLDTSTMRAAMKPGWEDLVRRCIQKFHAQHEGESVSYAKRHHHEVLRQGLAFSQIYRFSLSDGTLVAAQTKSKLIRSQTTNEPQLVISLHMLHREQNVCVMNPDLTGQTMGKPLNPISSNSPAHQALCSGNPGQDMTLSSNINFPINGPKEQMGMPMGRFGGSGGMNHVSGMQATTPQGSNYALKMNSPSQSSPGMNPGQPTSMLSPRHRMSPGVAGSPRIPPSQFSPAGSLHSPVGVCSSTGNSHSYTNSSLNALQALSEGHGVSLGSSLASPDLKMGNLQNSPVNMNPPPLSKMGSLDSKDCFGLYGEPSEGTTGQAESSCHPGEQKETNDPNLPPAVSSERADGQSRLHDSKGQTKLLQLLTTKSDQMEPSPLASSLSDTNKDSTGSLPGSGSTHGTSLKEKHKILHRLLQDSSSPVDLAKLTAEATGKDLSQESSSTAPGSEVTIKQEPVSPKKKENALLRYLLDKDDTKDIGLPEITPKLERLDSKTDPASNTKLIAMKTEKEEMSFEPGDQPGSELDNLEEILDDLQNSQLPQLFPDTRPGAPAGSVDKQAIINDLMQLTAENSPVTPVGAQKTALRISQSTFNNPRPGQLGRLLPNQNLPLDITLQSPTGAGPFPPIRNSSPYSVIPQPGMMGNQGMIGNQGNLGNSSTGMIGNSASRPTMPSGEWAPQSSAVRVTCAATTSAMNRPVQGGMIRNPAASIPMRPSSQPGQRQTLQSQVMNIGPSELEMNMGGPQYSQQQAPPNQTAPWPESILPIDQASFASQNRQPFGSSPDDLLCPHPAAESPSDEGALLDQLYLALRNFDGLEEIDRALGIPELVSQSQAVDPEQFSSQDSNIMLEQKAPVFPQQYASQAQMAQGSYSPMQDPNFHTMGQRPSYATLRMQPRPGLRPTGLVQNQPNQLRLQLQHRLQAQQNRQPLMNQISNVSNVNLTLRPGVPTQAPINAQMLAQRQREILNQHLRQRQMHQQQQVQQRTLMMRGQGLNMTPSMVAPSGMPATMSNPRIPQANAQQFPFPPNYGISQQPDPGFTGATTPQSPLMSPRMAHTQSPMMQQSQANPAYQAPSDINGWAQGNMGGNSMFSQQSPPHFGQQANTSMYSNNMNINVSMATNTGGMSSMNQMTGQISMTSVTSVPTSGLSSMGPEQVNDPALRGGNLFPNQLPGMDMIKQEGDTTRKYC

Biological target: Nuclear receptor coactivator 2 (Homo sapiens) (UniProt Q15596)
Test: decrease of SRC2 fusion reporter luminescence – cell-based, SRC2 inhibitor project, primary screen (AID 651957);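 also: 0% = DMSO treated cells and 100% = cells given Gossypol at 36 µM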
Details: HEK293 GAL4-SRC2 luciferase reporter, at 9 µM, stronger effect = higher value

| SMILES | inhibition |
| --- | --- |
| Cc1cc(N(CCCl)CCCl)ccc1C=O | inactive: 11.8% |
| O=c1[nH]c2ccccc2n1C1CCN(C(c2ccccc2)c2nnnn2C2CCCC2)CC1 (stereo not given) | inactive: -22.9% |
| CCCN1CCC(Nc2cc(OC)cc(OC)c2)CC1 | inactive: 10.2% |
| c1ccc(CN2CCC(Nc3ccccc3)CC2)cc1 | inactive: 25.8% |
| C/C(N)=N\P(=O)(Oc1ccccc1)Oc1ccccc1 | inactive: -17.4% |
| CN(C)C1(CNC(=O)c2cccc(C#N)c2)CCCCC1 | inactive: -24.9% |
| CC(C)(C)n1nnnc1C(c1cccc2ccccc12)N1CCC(n2c(=O)[nH]c3ccccc32)CC1 (stereo not given) | inactive: 8.16% |
| CC(C)(C)OC(=O)N1CCC(N(C(=O)c2ccccc2)c2ccc(Cl)cc2)CC1 | inactive: 6.44% |
| N#Cc1ccc(C(=O)NCC2(N3CCCCC3)CCCCC2)cc1 | inactive: 0.78% |
| N/C(=N\O)c1c(N)no[n+]1[O-] | inactive: -9.29% |
| COc1cccc(C(c2nnnn2C(C)(C)C)N2CCC(n3c(=O)[nH]c4ccccc43)CC2)c1OC (stereo not given) | inactive: 10.7% |
| CCOC(=O)N1CCC(Nc2ccc(C)cc2)CC1 | inactive: -14.3% |
| CCCCn1nnnc1C(c1cccc(OC)c1OC)N1CCC(n2c(=O)[nH]c3ccccc32)CC1 (stereo not given) | inactive: -14.8% |
| O=c1[nH]c2ccccc2n1C1CCN(C(c2cccs2)c2nnnn2C2CCCC2)CC1 (stereo not given) | inactive: -5.07% |
| O=C(OC1CN2CCC1CC2)C1c2ccccc2C=Cc2ccccc21 (stereo not given) | inactive: -35.5% |
| O=C(NCC1(N2CCOCC2)CCCCC1)c1cc(Br)ccc1Cl | inactive: 6.32% |
| COc1cc(C(=O)NCC2(N3CCOCC3)CCCCC2)cc(OC)c1C | inactive: 14.6% |
| CCCCn1nnnc1C(c1ccccc1)N1CCC(n2c(=O)[nH]c3ccccc32)CC1 (stereo not given) | inactive: -4% |
| O=c1[nH]c2ccccc2n1C1CCN(C(c2ccnc3ccccc23)c2nnnn2C2CCCC2)CC1 (stereo not given) | inactive: 5.78% |
| COc1ccc(C(=O)NCC2(N3CCOCC3)CCCCC2)cc1OC | inactive: 9.38% |
| NC(=O)C1(Nc2ccccc2)CCN(Cc2ccccc2)CC1 | inactive: -38.6% |
| O=c1[nH]c2ccccc2n1C1CCN(C(c2cccs2)c2nnnn2C2CCCCC2)CC1 (stereo not given) | inactive: 11.6% |
| CCC(CO)(C(=O)OC1CN2CCC1CC2)c1ccccc1 (stereo not given) | inactive: -19% |
| COc1cccc(C(=O)N(c2cc(C)cc(C)c2)C2CCN(C(=O)OC(C)(C)C)CC2)c1 | inactive: -4.58% |
| COc1cccc(C(c2nnnn2C2CCCC2)N2CCC(n3c(=O)[nH]c4ccccc43)CC2)c1OC (stereo not given) | inactive: 9.56% |
